Here are results for 1 compound from US20070207230A1, “EXTRACT OF NELUMBINIS SEMEN FOR THE TREATMENT OF DEPRESSION, MEDICINAL COMPOSITE AND HEALTH FOODS INCLUDING THE EXTRACT OF NELUMBINIS SEMEN” (PURIMED CO., LTD., priority 2004, published 2007).

For assay [1], the system named is 5-HT. The experiment in a line: 5-HT levels in hippocampus of CMS rats by microdialysis and HPLC-ECD. It is filed as in vivo, rat.
Assay [2] relates to 5-HT. The experiment in a line: 5-HT levels in normal animals by microdialysis and HPLC-ECD. Conditions: 10 mg/kg i.p. In kind it is in vivo, rat.

Take `CNCCC(Oc1ccc(C(F)(F)F)cc1)c1ccccc1` (stereo not drawn) [fluoxetine]: in the assay with 5-HT [1] (CMS rats, 10 mg/kg i.p., versus control group, P<0.05), the “5-HT levels in the hippocampus” value was “significant increase”. In the assay on 5-HT [1] (chronic CMS model, dose not stated), the “levels of the 5-HT neurotransmitter” value was “significantly increase”. Besides, the 5-HT levels result in the assay on 5-HT [2] is on record as “significantly increased”.
